Where “and” joins values, the source holds several entries; their conditions need not be identical. Equal values may be shown once. Read-outs that look alike come from different tables or passages of the source.
What was measured:
[1] = system: penicillin-resistant serotype 9V Streptococcus pneumoniae (1395); settings: for bacterial burden in the cerebrospinal fluid: individual rabbits
in vivo = experiment: in vivo; set-up: species or system New Zealand white rabbits; settings: infected rabbits; for Cmax: male, New Zealand white, rabbit, in vivo, iv, read-out: Peak concentration in serum
Protocol: Male New Zealand white rabbits weighing approx. 2500 g was used for the experiments. The rabbits arrived at the facilities 1-2 weeks prior to the experiment to allow for adaptation. They were kept in single cages covered with hay and offered food and water with no restrictions. Veterinarian expertise was available at the laboratory, and the experimental design was approved by the local animal legislation committee.
The rabbit was weighed and anaesthetized with dormicum 0.5 ml/kg (midazolam 5 mg/ml) s.c. and after 10 minutes with hypnorm 0.35 ml/kg (fentanylcitrat+fluanison) i.m.
The ears, scalp and neck of the rabbit were shaved and the skin disinfected. An incision measuring approx. 2 cm was made on the forehead of the rabbit and the scalp was exposed by blunt dissection. 4 bore holes were made demarcating a square and 4 screws were screwed up at right angles to the surface (2.5 to 3 turns). An acrylic helmet, embedding a turnbuckle, was moulded from dental casting material directly onto the scalp of the rabbit and the helmet was cooled under running water. The rabbit was put back into its cage with free access to food and water to rest for 8-10 hours until the time of bacterial inoculation or start of pharmacokinetic treatment study on uninfected rabbits. Analgesia with buprenorfin, 0.1 mg/kg, was given.
In the evening, at 10 p.m., the day before the treatment experiments with Meningicin, the rabbit was re-anaesthetized with hypnorm-dormicum. The head of the rabbit was immobilised in a stereotactic frame and a spinal canula was introduced in cisterna magna for the inoculation of 1×10^5 CFU pneumococci. After the bacterial inoculation, the rabbit was put back into its cage with access to food and water for another 8 hours.
The rabbit was re-anaesthetized with urethan 3.5 ml/kg ([…] 50%, 1.75 g/kg) s.c. at 7.30 a.m. A venous catheter was applied in the left ear-vein and Mebumal approx. 0.5-1 ml (Pentobarbital 50 mg/ml) i.v. was infused slowly until the rabbit was asleep and deeply anaesthetized. A three-way tap was connected to the venous catheter and syringes containing pentobarbital for supplemental anaesthetics and isotonic NaCl and heparin 1 Ul/ml for flushing were connected to the tap. Rabbits were observed every half hour. When the need for supplemental anaesthesia arose, additional 0.2 ml Mebumal (Pentobarbital 50 mg/ml) was given. During the experiment observations and anaesthetics were recorded in the scheme of the laboratory animal-department and in the book of the Laboratory Animal Inspection.
An arterial canula was applied in the artery of the right ear and used for blood-sampling throughout the experiment. A bolt was fastened to the turnbuckle embedded in the acrylic helmet, and the rabbit's head was fixed in a stereotactic frame. The rabbit remained fixed throughout the experiment.
Cisterna magna was punctured with a spinal-canula, fastened to the stereotactic frame. The canula was left in place throughout the experiment and used for CSF-sampling.
At the time-point relevant to the conducted experiment 1 ml of blood and 0.3 ml of CSF was aspirated from the arterial canula/the spinal needle and transferred to EDTA-tubes/Eppendorf-tubes. After the last sampling, the experiment was terminated and the rabbits were killed with an overdose of Mebumal (Pentobarbital 200 mg/ml).
CSF and plasma concentrations of Meningicin were measured by use of HPLC. When evaluating bacterial concentrations in inocula and samples, serial 10-fold dilutions (requiring 20 microliters of test-material) plated as spots of 50 microliters on blood-agar plates were used for calculations of CFU/ml.
Meningicin (dosages of 20, 40 and 80 mg/kg respectively) was administered through the three-way tap as an intravenous bolus infusion over 10 minutes at the beginning of the experiment. […]

[2] = system: Streptococcus pneumoniae (1395); experiment: Minimum inhibitory concentration (MIC) against Streptococcus pneumoniae (1395); format: cell-based; settings: penicillin-resistant serotype 9V
Text: An Isolate of a penicillin-resistant serotype 9V Streptococcus pneumoniae (1395), originally isolated from the CSF of a person with meningitis, was used in the meningitis model. This strain was formerly used for evaluating the effectiveness of treatment of meningitis with Moxifloxacin (see Ostergaard et al., 1998, “Evaluation of moxifloxacin, a new 8-methoxyquinolone, for treatment of meningitis caused by a penicillin-resistant pneumococcus in rabbits”, Antimicrob Agents Chemother 42(7): 1706-1712).
The synthetic defensin used in the experiment is a polypeptide having the amino acid sequence shown in SEQ ID NO: 1.

[3] = penicillin-resistant serotype 9V (1395, rabbit, in vivo, 0 h)
[4] = 20 mg/kg i.v. bolus infusion over 10 minutes
[5] = 40 mg/kg i.v. bolus infusion over 10 minutes
[6] = 80 mg/kg i.v. bolus infusion over 10 minutes

## CC[C@H](C)[C@@H]1NC(=O)[C@H](CO)NC(=O)[C@H](CCCCN)NC(=O)[C@@H]2CSSC[C@@H](C(=O)N[C@@H](Cc3ccc(O)cc3)C(=O)O)NC(=O)[C@H](CCCCN)NC(=O)[C@@H]3CSSC[C@H](NC(=O)[C@H](CCCNC(=N)N)NC(=O)[C@H](CC(C)C)NC(=O)[C@H](CC(=O)O)NC(=O)[C@H](CC(=O)O)NC(=O)[C@H](CCC(=O)O)NC(=O)[C@H](CC(N)=O)NC(=O)[C@H](Cc4c[nH]c5ccccc45)NC(=O)[C@@H]4CCCN4C(=O)CNC(=O)[C@H](CC(N)=O)NC(=O)[C@@H](NC(=O)CNC(=O)[C@H](Cc4ccccc4)NC(=O)CN)CSSC[C@H](NC(=O)[C@H](Cc4ccc(O)cc4)NC(=O)CNC(=O)CNC(=O)[C@H](CCCCN)NC(=O)[C@H](Cc4ccc(O)cc4)NC(=O)CNC(=O)[C@H](CCCCN)NC1=O)C(=O)N[C@@H](C)C(=O)N[C@@H](CCCCN)C(=O)NCC(=O)NCC(=O)N[C@@H](Cc1ccccc1)C(=O)N[C@@H](C(C)C)C(=O)N3)C(=O)N[C@@H](Cc1c[nH]cn1)C(=O)N[C@@H](CC(N)=O)C(=O)N[C@@H](Cc1c[nH]cn1)C(=O)N2 [Meningicin]
[1]; [3]
  reduction in bacterial burden in the cerebrospinal fluid (Δ log CFU): 0.00 Δ log CFU
  reduction in bacterial burden in the cerebrospinal fluid (Δ log CFU), Average: 0.00 Δ log CFU
[1]; penicillin-resistant serotype 9V (1395, rabbit, in vivo, 3 h)
  reduction in bacterial burden in the cerebrospinal fluid (Δ log CFU), Average: −2.97 Δ log CFU
[1]; penicillin-resistant serotype 9V (1395, rabbit, in vivo, 5 h)
  reduction in bacterial burden in the cerebrospinal fluid (Δ log CFU), Average: −4.22 Δ log CFU
[1]; penicillin-resistant serotype 9V (1395, rabbit, in vivo, 10 h)
  reduction in bacterial burden in the cerebrospinal fluid (Δ log CFU), Average: −4.86 Δ log CFU
[1]; rabbit meningitis model, result in words
  efficacy in treating meningitis: very high efficacy
[1]; rabbit, in vivo
  efficacy compared with Ceftriaxone: at least as high as the efficacy of Ceftriaxone
[1]; time 3 hours, Meningicin 40 mg/kg at 0 h + 20 mg/kg after 5 h
  bacterial burden in the cerebrospinal fluid: 1,500 CFU/ml and 2,500 CFU/ml and 1,250 CFU/ml
[1]; time 10 hours, Meningicin 40 mg/kg at 0 h + 20 mg/kg after 5 h
  bacterial burden in the cerebrospinal fluid: 0.1 CFU/ml
[1]; time −10 hours (before treatment), Meningicin group
  bacterial burden in the cerebrospinal fluid: 240,000 CFU/ml
In vivo; 20 mg/kg i.v.
  Meningicin penetration of the blood-brain barrier: 21%
In vivo; [4]
  AUC CSF: 8,557 micrograms/l
  AUC serum: 40,162 micrograms/l
  Peak concentration in CSF: 2,001 micrograms/l
  Cmax: 31.4 µg/mL
In vivo; 40 mg/kg i.v.
  Meningicin penetration of the blood-brain barrier: 49%
In vivo; [5]
  AUC CSF: 47,902 micrograms/l
  AUC serum: 97,040 micrograms/l
  Peak concentration in CSF: 10,230 micrograms/l
  Cmax: 113 µg/mL
In vivo; 80 mg/kg i.v.
  Meningicin penetration of the blood-brain barrier: 16%
In vivo; [6]
  AUC CSF: 30,476 micrograms/l
  AUC serum: 192,990 micrograms/l
  Peak concentration in CSF: 8,040 micrograms/l
  Cmax: 376 µg/mL
[2]
  minimium inhibitory concentration (MIC): 0.25 micrograms/ml

Source: US20090253629A1 (priority 2008, published 2009)
